The entries are a selection whose mix differs from that of the whole data set. Active and inactive are the calls of the source.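 How the source made its calls: active means z-score above 3 at 5 µM with at least 500 cells counted in the well; inconclusive means wells under 500 cells, flagged as cytotoxic or low count; inactive means the rest.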
test: up-regulation of insulin promoter-GFP reporter – imaging, high-content screening, mouse beta cells (AID 1625); conditions: MIN6 insulin promoter-GFP reporter, at 5 µM, hits give high values

Structure (SMILES) | z-score
COc1ccc(C(=O)NCC2(N3CCCCC3)CCCCC2)c(OC)c1OC | inactive: -0.92
N#CC1(Nc2ccccc2)CCN(Cc2ccccc2)CC1 | inactive: -0.41
O=C(OC1CN2CCC1CC2)C1c2ccccc2Oc2ccccc21 (configuration not stated) | inactive: 0.16
O=C(NCC1(N2CCOCC2)CCCCC1)c1cc2ccccc2o1 | inactive: -1.13
COc1ccc(NC2CCN(CCc3ccccc3)CC2)c(OC)c1 | inactive: -1.39
CCOc1ccc(C)cc1CN(CCCl)CCCl | inactive: 0.23
Cc1ccc(OCC(C)C)c(CN(CCCl)CCCl)c1 | inactive: -0.18
O=C(NCC1(N2CCCCC2)CCCCC1)c1cccc([N+](=O)[O-])c1 | inactive: -0.22
N#CC1(Nc2ccccc2)CCN(CCc2ccccc2)CC1 | inactive: -0.46
COc1ccc(NC2CCN(C(=O)OC(C)(C)C)CC2)cc1 | inactive: 1.64
CN1CCN(CCOC(=O)C(O)(c2ccccc2)c2ccccc2)CC1 | inactive: 0.18
CN(C)c1cccc(C(=O)NCC2(N3CCCCC3)CCCCC2)c1 | inactive: -0.66
COc1ccc(CN(CCCl)CCCl)cc1Cl | inactive: 2.52
CC(C)c1ccc(NC2CCN(C(=O)OC(C)(C)C)CC2)cc1 | inactive: -0.2
COc1ccc(C(=O)NCC2(N3CCOCC3)CCCCC2)cc1OC | inactive: -0.19
O=C(OC1CN2CCC1CC2)C1c2ccccc2C=Cc2ccccc21 (configuration not stated) | inactive: -0.57
N/C(=N\O)c1c(N)no[n+]1[O-] | inactive: 0.11
N#Cc1ccc(C(=O)NCC2(N3CCCCC3)CCCCC2)cc1 | inactive: 0.06
c1ccc(CN2CCC(Nc3ccccc3)CC2)cc1 | inactive: 0.53
Fc1ccccc1NC1CCN(Cc2ccccc2)CC1 | inactive: -0.15
CN(C)c1ccc(C(=O)NCC2(N3CCCCC3)CCCCC2)cc1 | inactive: 0.19
CCN1CCC(Nc2cccc(F)c2)CC1 | inactive: 0.16
CC(C)(C)OC(=O)N1CCC(Nc2ccccc2)CC1 | inactive: -0.32
CCOc1ncccc1C(=O)NCC1(N2CCOCC2)CCCCC1 | inactive: -0.06
CCCOc1ccc(C)cc1CN(CCCl)CCCl | inactive: 0.18
CCC(CO)(C(=O)OC1CN2CCC1CC2)c1ccccc1 (configuration not stated) | inactive: -0.06
COc1cc(OC)cc(C(=O)NCC2(N3CCOCC3)CCCCC2)c1 | inactive: -0.49

Reference: PubChem BioAssay AID1625 (Sanford-Burnham Center for Chemical Genomics, 2009)
